System: efflux pumps
Assay: Efflux pump activity: bidirectional permeability of rhodamine 123 across co-culture model
Format: in vitro ADME, human
Description: After 1 h, samples from both compartments were collected and the mean fluorescence of rhodamine 123 was measured using a Fluorolog 3 spectrofluorometer (Horiba Jobin Yvon) with excitation/emission wavelengths 492/526 nm. Concentrations of rhodamine 123 were determined by standard calibration curves. Apparent permeability coefficients (P.) were calculated as described above.

efflux ratio of rhodamine 123 (model treated with cAMP+Ro+LiCl+A83-01 48 h, rhodamine 123 10 μM, 1 h): 2.1
efflux ratio of rhodamine 123 with verapamil (model treated with cAMP+Ro+LiCl+A83-01, verapamil 2 μM, efflux pump inhibitor, 60 min, 10 µM): 0.98
Substance: rhodamine 123

Source: US20260375146A1, “COMBINATION OF COMPOUNDS FOR DEVELOPING IN VITRO MODELS OF THE BLOOD-BRAIN BARRIER” (HUN-REN SZEGEDI BIOLÓGIAI KUTATÓKÖZPONT, priority 2023, published 2026)
